Our source for the IC50 values is US20060183182A1, “Enzyme substrate” (SmithKline Beecham p.l.c., priority 2000, published 2006).

Chains of the proteins cited; added tags and fusions are not shown.
UniProt P11712, whole entry: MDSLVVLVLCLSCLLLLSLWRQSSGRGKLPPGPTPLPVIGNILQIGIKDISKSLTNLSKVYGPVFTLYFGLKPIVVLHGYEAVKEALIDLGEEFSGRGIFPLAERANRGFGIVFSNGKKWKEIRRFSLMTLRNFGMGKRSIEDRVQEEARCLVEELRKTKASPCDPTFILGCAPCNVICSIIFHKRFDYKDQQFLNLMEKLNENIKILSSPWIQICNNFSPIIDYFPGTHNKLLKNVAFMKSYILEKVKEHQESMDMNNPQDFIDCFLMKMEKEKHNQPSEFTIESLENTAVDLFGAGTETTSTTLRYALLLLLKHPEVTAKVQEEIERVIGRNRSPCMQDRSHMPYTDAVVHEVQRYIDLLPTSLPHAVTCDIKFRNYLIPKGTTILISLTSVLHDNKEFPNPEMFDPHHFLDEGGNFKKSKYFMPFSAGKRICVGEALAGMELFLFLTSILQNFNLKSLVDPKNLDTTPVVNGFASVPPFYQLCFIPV

This data set concerns the target CYP2C9 (Homo sapiens, UniProt P11712). The note with it: read-out: IC50 for inhibition of 3-butyryl-7-methoxycoumarin metabolism by CYP2C9; 20 μM 3-butyryl-7-methoxycoumarin substrate, 200 μg/mL CYP2C9 microsomal protein, pH 7.4, 37° C., FIG. 2.

Broadly, the IC50 is the concentration at which inhibition is half-maximal.

For the substance sulphaphenazole, the IC50 was found to be 600 nM.
